# Apparent affinities of Ab-91 variants for a coronavirus HR2 peptide

The measurements come from Engelhart et al. 2022 (doi:10.1038/s41597-022-01779-4) through the FLAb antibody collection.

Target: peptide PDVDLGDISGINAS, taken from heptad repeat 2 (HR2) of SARS-CoV-2 spike.

Each scFv is VL, three GGGGS repeats, VH, as in the parent Ab-91, and differs from it in the CDRs of the heavy chain only.
VL: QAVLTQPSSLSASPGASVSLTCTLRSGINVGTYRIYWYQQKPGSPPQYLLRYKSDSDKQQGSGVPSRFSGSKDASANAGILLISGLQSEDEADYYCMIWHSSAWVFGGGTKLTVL
VH: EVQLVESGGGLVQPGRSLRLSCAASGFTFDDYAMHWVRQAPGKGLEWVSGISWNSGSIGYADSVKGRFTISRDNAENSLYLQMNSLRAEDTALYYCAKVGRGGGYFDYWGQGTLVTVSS

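Phage display of a naive human antibody library on the peptide gave the parent. AAYL51 was designed without a model: most single CDR substitutions and a random sample of double and triple ones. The assay is AlphaSeq: two haploid yeast populations carry antibody and antigen on their surface. The frequency of each diploid, read from paired DNA barcodes, reflects how well the two displayed proteins bind. A regression on co-assayed BCL2-family reference pairs converts the normalised counts of each replicate to an apparent Kd. Each pool was mated in three replicate cultures.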

The parent's heavy chain CDRs are GFTFDDYAMH, GISWNSGSIGYADSVK, VGRGGGYFDY; each variant's own CDRs replace them letter for letter. Values are apparent Kd, the geometric mean of the replicates that gave a signal; lower means stronger binding. An entry "nd" has no value in the source: the pair was not observed among the diploids in any replicate. This suggests poor binding but is not conclusive.

CDR-H1	CDR-H2	CDR-H3	Kd	seen in
GFTFDDYAMH	GISWNSGSIGYIDSCK	MGRGGGYFDY	nd	0/3
GFTFDDWAHH	YISWNSGSIGYADSVK	VGRGGGYFDY	88 µM	3/3
GFTFDDYAMH	YISWNSGSIGYADSVK	VGRGGGYFDH	5.7 µM	2/3
GFTFDDYAMH	GISWNSGSIGEADSVK	VIRGGGYFDY	62 nM	3/3
GFTFDGYAMH	GISWNSGSIGYADSVE	VGRGGGYPDY	120 µM	2/3
GFTFDKYAMH	GMSWNSGSPGYADSVK	VGRGGGYFDY	nd	0/3
GFTFDDYAMH	GIEWNSGSIGWADSVK	VGRGGPYFDY	nd	0/3
GFTTDDYAMH	GISWNSGRIGYADEVK	VGRGGGYFDY	nd	0/3
GFTADDYAMH	GISWNSNSIGYADSVK	VGRGGSYFDY	22 µM	1/3
GYTFDDYAMH	GIEWNSGSIGYADSVY	VGRGGGYFDY	990 nM	1/3
GATFDDYAMH	GISWNSRSIGYADSVK	VPRGGGYFDY	nd	0/3
GFDFDDPAMH	GISWNSFSIGYADSVK	VGRGGGYFDY	680 µM	1/3
GFTFDDYAMH	GISWNSGSAGYADSVK	VGRIGGYDDY	nd	0/3
GFTFDDYAMH	GISWNSGTIGSQDSVK	VGRGGGYFDY	190 µM	1/3
FFTFDDYAMH	GIVWNSGSIGYADSVK	VGRCGGYFDY	nd	0/3
GFTFDDYAMH	GISWNSGSIGYADYVK	VGEGGGYMDY	nd	0/3
GFTFDDYAMH	GIPWNSGSIGYADSCK	VGRGKGYFDY	80 µM	1/3
GFTFDDYAMH	GTSWNSGSSGYADPVK	VGRGGGYFDY	160 µM	3/3
GFTFDDYAMH	GIWWNSGSIGYADFVG	VGRGGGYFDY	2.8 µM	1/3
GFTFDDAAMH	GISWNSGSIGYADQVK	VGRGGGYFWY	nd	0/3
GFTFDDYAMH	GTSWNSGCIGYADSVK	VGRCGGYFDY	nd	0/3
GFTFDDYAMW	GGSWNSGSIGYADSIK	VGRGGGYFDY	49 µM	3/3
RFTFDDRAMH	GISWNSGSISYADSVK	VGRGGGYFDY	nd	0/3
GFTFDDYAMH	GPSWNSGSIGYADSVK	VGRGGGYFDG	nd	0/3
GFTFDDYAMH	GISWNSGTIGYADIVK	VGRGGDYFDY	90 µM	3/3
GFTFDDSAMH	GISWNSGSIGYAGSLK	VGRGGGYFDY	11 µM	2/3
GFTFDDYAFH	EISWNSGSIGYADSVK	QGRGGGYFDY	nd	0/3
GFTFDDYAMH	GISWPSGSIGYADSVK	VGRGGGYFPW	11 µM	2/3
GFGFDDYAMH	GISWNSGSIRYADSVK	VQRGGGYFDY	nd	0/3
GFTFDDYAMH	GISTNSGSIGYADSVV	SGRGGGYFDY	59 µM	2/3
GFTFDDYFCH	GISWNSGSIGYADYVK	VGRGGGYFDY	14 µM	3/3
GFTFDDYAMH	GISWQSGSIGYADSVK	VGRGVGYFDY	nd	0/3
GFTFDDYAMH	GISWNVGSIGYPDNVK	VGRGGGYFDY	5.1 µM	1/3
GFTFDDYAMH	GISWNSGSIGYADSVK	VGRGGGYVWY	nd	0/3
GFTFDWHAMH	GISWNSKSIGYADSVK	VGRGGGYFDY	570 µM	1/3
GFTFDDYAMH	GISQNSGSIGYQDSQK	VGRGGGYFDY	85 µM	1/3
GFTFNDYAMH	NISWNSGSIGYADSVK	VGRGGGYFDY	28 µM	1/3
GFTFDDYAQI	GISWNSGCIGYADSVK	VGRGGGYFDY	110 µM	2/3
GYTFDDYAMH	GISWNSGSIGYADKVK	VGAGGGYFDY	41 µM	2/3
GFTFDDYHMH	GISSNSGSIGYADSVK	VGHGGGYFDY	nd	0/3
GFTFDDYAMH	GISWNSGSIGYALSFK	VGRGGGYFGY	21 µM	2/3
GMTWDDYAMH	GISWNSGSIGYADPVK	VGRGGGYFDY	6.7 µM	1/3
GFTFDDYAMH	GISWNSGSIGYTDSVY	VGRGQGYFDY	nd	0/3
GFTFMDYAMH	GISWNSGSICYADSVK	VGRGGGYFDM	29 µM	1/3
GFTFDDYAMH	GISWNSGSIGYADSVK	VGSGGGYFFY	nd	0/3
AFTFDDAAMH	GISWNSGSIGYADSVK	FGRGGGYFDY	nd	0/3
GQTFDDYAMH	GISWNSGSVGYADSVK	VGRGKGYFDY	nd	0/3
GFTFDDYAMH	GISTNSGSIGYADSVK	VFRGGGAFDY	nd	0/3
GFTTHDYAIH	GISWNSGSIGYADSVK	VGRGGGYFDY	16 µM	1/3
GFPFDDYAMH	GISWNSGSIGYPDSVK	VGRDGGYFDY	61 µM	2/3
GFTFDDYPMH	EISWNSGSIGYADSVK	VGRGGGYFDY	230 µM	1/3
GFTFDDYAQH	GISWNSGSIGYADSVK	VGRIGGYFDY	nd	0/3
GFTFDDYAMH	GISWNSGSIGYRDSVK	VGRSGPYFDY	39 µM	3/3
GFTFDDYAMH	GISWNRGSIGEADSVK	VGRFGGYFDY	nd	0/3
GFTFLDYAMH	GISWGSGSIGYADSVK	VGRGGGYNDY	25 µM	1/3
GFTFDDYASH	GISWNSGSIGYACSVK	VGRGGGYFHY	550 µM	1/3

For reference, 6 entries of the list once more:

CDR-H1	CDR-H2	CDR-H3	Kd	seen in
GFTFDDYHMH	GISSNSGSIGYADSVK	VGHGGGYFDY	nd	0/3
GFTFNDYAMH	NISWNSGSIGYADSVK	VGRGGGYFDY	28 µM	1/3
GFTFDDYAMH	GTSWNSGCIGYADSVK	VGRCGGYFDY	nd	0/3
FFTFDDYAMH	GIVWNSGSIGYADSVK	VGRCGGYFDY	nd	0/3
GATFDDYAMH	GISWNSRSIGYADSVK	VPRGGGYFDY	nd	0/3
GFDFDDPAMH	GISWNSFSIGYADSVK	VGRGGGYFDY	680 µM	1/3

Empty control strains, which show no peptide, gave a signal in 21% of pairings with library AAYL51; the median was 34 µM and 95% of these signals were weaker than 1.8 µM. No background was subtracted.